# Source: article PMC3728351, “Allosteric Inhibitors of the NS3 Protease from the Hepatitis C Virus” (PLoS ONE, 2013)
# Assay: in vitro
# Format: cell-based
# Details: human
smiles,measurement,value
OCCN(CCO)c1nc(N2CCCCC2)c2nc(N(CCO)CCO)nc(N3CCCCC3)c2n1 [Compound 2],CC50,80 µM
